Source: patent US20100069498A1, “USE OF ALPHA-KETOGLUTARIC ACID FOR THE TREATMENT OF HIGH PLASMA GLUCOSE CONDITION” (ESSENTYS AB, priority 2003, published 2010)

Key:
[1] = Incremental increase of free amino acids in blood after intraduodenal amino acids mixed with Na-AKG or chitosan-AKG; assay type: in vivo; details: pigs, intraduodenal infusion with amino-acids
[2] = From the text: Female piglets (n=9) were purchased from the Texas Department of Criminal Justice, Huntsville, Tex.
Pigs (14 d of age) arrived at the Children's Nutrition Research Center and for a 7-day adjustment period were fed a liquid milk replacer diet (Litter Life, Merrick, Middleton, Wis.) at a rate of 50 g/(kg·d).
Briefly, under isoflurane anesthesia and aseptic conditions, the piglets were implanted with a polyethylene catheter (o.d., 1.27 mm, Becton Dickinson, Sparks, Md.) in the common portal vein, and silastic catheters (o.d., 1.78 mm) in an external jugular vein and a carotid artery.
An ultrasonic flow probe (8 to 10 mm i.d., Transonic, Ithaca, N.Y.) was placed around the portal vein.
A silicone catheter (o.d., 2.17 mm, Baxter Healthcare, McGaw Park, Ill.) was implanted into the lumen of the duodenum. The catheters were filled with sterile saline containing heparin (2.5×10^4 U/L), and exteriorized on either the left flank (portal and duodenal catheters, flow probe leads) or between the scapulae (jugular and carotid catheters).
For plasma amino acid analysis, a 0.2 mL aliquot of plasma was mixed with an equal volume of an aqueous solution of methionine sulfone (4 mmol/L) and centrifuged at 10,000×g for 120 min through a 10-kDa cutoff filter.
A 50 μL aliquot of the filtrate was dried and the amino acids were analyzed by reverse-phase HPLC of their phenylisothiocyanate derivatives (Pico Tag, Waters, Woburn, Mass.).
Plasma ammonia was determined using a spectrophotometric assay kit (171-C, Sigma-Aldrich, St. Louis, Mo.).
Plasma glucose was determined using a spectrophotometric assay kit (315-100; Sigma-Aldrich, St. Louis, Mo.).
Net portal balance of metabolites [μmol/(kg·h)] was calculated as follows:
(Conc.PORT−Conc.ART)×PBF (1)
when Conc. is the concentration in the blood (μmol/L), PORT and ART refer to portal and arterial blood and PBF is portal blood flow [L/(kg·h)].
Piglets were deprived of food for 15 h before initiation of the experiment. […]

Remark: listed apart in the source
[3] = AKG treatment, duodenal infusion
[4] = piglets, duodenal infusion 930 μmol/(kg·h) AKG (3.75% of diet dry matter), ± SEM

O=C(O)CCC(=O)C(=O)O [AKG, alpha-ketoglutaric acid]
Incremental increase of free amino acids in the blood (Δ), Artery ([1]; Time 1 hr): −0.5^a mmol/L | Incremental increase of free amino acids in the blood (Δ), Hepatic vein ([1]; Time 1 hr): 0.43^A mmol/L | Incremental increase of free amino acids in the blood (Δ), Artery ([1]; Time 1.5 hr): 0.04^b mmol/L | Incremental increase of free amino acids in the blood (Δ), Hepatic vein ([1]; Time 1.5 hr): 1.61^B mmol/L | Incremental increase of free amino acids in the blood (Δ), Artery ([1]; Time 2.5 hr): −0.48^a mmol/L | Incremental increase of free amino acids in the blood (Δ), Hepatic vein ([1]; Time 2.5 hr): 1.59^B mmol/L | Effect on portal blood flow vs control [2, 3]: not affected | Proportion of infused AKG appearing in the portal venous drainage, corrected for absorption of AKG from the control diet ([2]; piglets, duodenal infusion 930 μmol/(kg·h) AKG): 8.12% | Portal blood flow [2, 4]: 56 ± 4.5 mL/min/kg | Effect on whole body urea flux vs control [3]: not affected | Effect on whole body leucine flux vs control (AKG treatment, FIG. 1): not affected | Whole-body leucine kinetics (flux, NOLD, Ra, Balance) vs control (FIG. 1, n=9, ANOVA): not different from control | Whole body urea flux [4]: 377.8 ± 39 µmol/kg/h

Marks after values point to notes of the source that are not given here.
